Assay results published in patent US6207683A, “Benzocycloheptathiophene compounds” (Bridge Pharma, Inc., priority 1999, dated 2001).

Target: T1, muscarinic M1 -receptors (bovine striatal membranes) (Bos taurus, UniProt F1N5C5)
T1 sequence (F1N5C5 1-460): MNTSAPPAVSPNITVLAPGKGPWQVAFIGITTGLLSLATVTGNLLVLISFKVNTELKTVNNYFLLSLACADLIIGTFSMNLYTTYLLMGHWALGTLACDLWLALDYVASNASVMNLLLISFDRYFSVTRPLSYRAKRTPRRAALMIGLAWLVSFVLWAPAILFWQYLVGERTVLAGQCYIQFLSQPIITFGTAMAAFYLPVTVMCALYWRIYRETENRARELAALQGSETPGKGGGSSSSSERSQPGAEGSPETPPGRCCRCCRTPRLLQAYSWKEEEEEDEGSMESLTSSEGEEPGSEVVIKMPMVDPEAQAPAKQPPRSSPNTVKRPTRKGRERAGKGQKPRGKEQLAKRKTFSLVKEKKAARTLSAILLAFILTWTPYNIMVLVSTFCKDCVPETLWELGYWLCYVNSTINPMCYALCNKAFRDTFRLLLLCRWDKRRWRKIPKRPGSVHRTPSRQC
Experiment: biochemical
Format: binding
Description: 2. Binding to muscarinic receptors
The affinities of the test compounds for muscarinic M1 -receptors were assessed using the [^3 H]pirenzepine binding assay, modified after Luthin et al. [^3 H]Pirenzepine and [^3 H]QNB binding to brain muscarinic cholinergic receptors. Molec. Pharmac. 1984, 26: 164-169. Briefly, the experiments were carried out on bovine striatal membranes expressing muscarinic M1 -receptors. After incubation with the test article and the proper radioligand and washing, bound radioactivity is determined with a […], using a commercial scintillation cocktail. The specific radioligand binding to each receptor is defined as the difference between total binding and nonspecific binding determined in the presence of an excess of unlabelled ligand. IC50 values (concentrations required to inhibit 50% of specific binding) were determined by non linear regression analysis of the competition curves.

CN1CCC(=C2c3ccccc3CC(=O)c3sccc32)CC1 [Ketotifen, ketotifen]
IC50: 71.1 nM
